Results from publication PMC6563049, “Radiosynthesis of (R,S)‐[^18F]GE387: A Potential PET Radiotracer for Imaging Translocator Protein 18 kDa (TSPO) with Low Binding Sensitivity to the Human Gene Polymorphism rs6971” (Chemmedchem, 2019).

Sequences of proteins named here, by UniProt entry; tags and fusion partners are left off.
UniProt P30536, whole entry T147A: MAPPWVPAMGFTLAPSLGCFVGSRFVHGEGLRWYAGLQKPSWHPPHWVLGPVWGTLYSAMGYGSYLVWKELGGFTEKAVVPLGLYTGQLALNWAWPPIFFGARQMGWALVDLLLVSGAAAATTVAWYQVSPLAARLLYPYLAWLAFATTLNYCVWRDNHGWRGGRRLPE
UniProt P30536, whole entry, stated change not applied: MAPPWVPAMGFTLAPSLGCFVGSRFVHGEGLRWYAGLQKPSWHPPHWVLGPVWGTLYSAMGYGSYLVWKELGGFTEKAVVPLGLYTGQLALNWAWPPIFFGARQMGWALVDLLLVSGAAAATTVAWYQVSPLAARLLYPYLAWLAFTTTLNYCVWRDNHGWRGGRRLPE

How the values were obtained:
human TSPO wild‐type = target: T1, human TSPO wild‐type (Homo sapiens, UniProt P30536); assay: Radioligand ([^3H]1) displacement binding on membranes of HEK cells stably transfected with wild-type TSPO; conditions: HEK cell membranes, [^3H]1 10 nM, 4 °C, 90 min; mean±SEM, n=3; read-out: Ki (nM) at WT (Ala/Ala) HAB
T1 construct: expressed in transfected cells; host or cells: HEK cells, stably transfected; membranes
Procedure: (§1) Binding affinities were measured as per our published protocol.21 Briefly, an Ultra‐Turrax homogeniser was used to prepare membranes from HEK cells stably transfected with wild‐type and A147T TSPO. […] Reactions were terminated by filtration through a 96‐well glass‐fibre filter plate (Millipore), and washed eight times with ice‐cold 50 mM Tris⋅HCl. Microscint 0 was added to the dry filters, and radioactivity read in a Microbeta^2 2450 Microplate Counter (PerkinElmer). Data were analysed using GraphPad Prism 6.0, and a four‐parameter nonlinear regression curve fit was used to calculate K i values. Data are expressed as the mean±SEM from at least three independent experiments.

TSPO A147T = target: T2, TSPO A147T (Homo sapiens, UniProt P30536); assay: Radioligand ([^3H]1) displacement binding on membranes of HEK cells stably transfected with A147T TSPO
T2 construct: expressed in transfected cells; host or cells: HEK cells, stably transfected; membranes
Procedure: as §1, with “Microscint 0 was added to the dry filters, and radioactivity read in a Microbeta^2 2450 Microplate Counter (PerkinElmer).” left out

In the case of `CC[C@@H](C)N(C)C(=O)c1cc2ccccc2c(-c2ccccc2Cl)n1` [(R)-1, R‐1‐(2‐chlorophenyl)‐N‐methyl‐N‐(1‐methylpropyl)‐3‐isoquinoline carboxamide], the Ki (human TSPO wild‐type) is reported as 29.2 ± 7.3 nM and the Ki (TSPO A147T) is reported as 36 ± 6.8 nM.
